# Data taken from US20220304998A1, “REBAMIPIDE FOR USE IN PREVENTION AND TREATMENT OF CROHN'S DISEASE” (SQUARE POWER LTD., priority 2019, published 2022).
# System: patients suffering from Crohn's disease
# Assay: Clinical course, response and tolerability in Crohn's disease patient case reports
# Format: in vivo, human
# Conditions: Example 2; after three months on mesalazine
# Source text: Several patients suffering from Crohn's disease for at least 5 years without sufficient response to standard treatment were given rebamipide tablets three times a day. […] The severity of the disease was quantified by the CDAI, and the level of inflammation by fecal calprotectin.
compound,measurement,value
"Nc1ccc(O)c(C(=O)O)c1 [mesalazine, 5-aminosalicylic acid]",adverse reaction,pancreatitis
